Assay results: US20230233650A1, “NOVEL FATTY ACID MODIFIED UROCORTIN 2 DERIVATIVES AND THE USES THEREOF” (Novo Nordisk A/S, priority 2021, published 2023)

Biological target: T1, Human CRF1 receptor (Homo sapiens, UniProt P34998)
T1 construct: host or cells: CHO-K1 (membrane preparation)
T1 sequence (P34998 24-415): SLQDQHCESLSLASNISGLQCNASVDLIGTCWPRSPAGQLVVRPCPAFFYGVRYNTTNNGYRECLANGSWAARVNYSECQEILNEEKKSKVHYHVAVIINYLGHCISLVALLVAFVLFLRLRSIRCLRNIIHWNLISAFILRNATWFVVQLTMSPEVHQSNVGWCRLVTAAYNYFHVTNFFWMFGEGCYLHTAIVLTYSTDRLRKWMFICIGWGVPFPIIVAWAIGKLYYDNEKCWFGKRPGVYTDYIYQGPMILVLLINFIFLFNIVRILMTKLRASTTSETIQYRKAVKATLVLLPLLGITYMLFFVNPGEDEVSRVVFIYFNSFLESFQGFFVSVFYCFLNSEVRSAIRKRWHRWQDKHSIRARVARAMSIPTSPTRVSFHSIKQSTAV
Experiment: CRF1 receptor CHO cell β-Arrestin recruitment assay (PathHunter)
Type: cell-based
Settings: CHO-K1 cells, 0.1% ovalbumin
Procedure: The purpose of this investigation was to test the in vitro agonistic activity (potency) of the compounds of the invention to receptor subtype CRF1 and CRF2. […] The native, human Ucn1 and Ucn2 peptides were included as references. Assay principle: Activated G-protein coupled receptors (GPCRs) can interact with the Arrestin family of signalling proteins. The potency of peptides for CRF induced Arrestin recruitment is determined using the PathHunter Enzyme Fragment Complementation approach substantially as described in von […] et al., FASEB J., 2007, 3819, 26 and Hamdouchi et al., J. Med. Chem., 2016, 59, 10891-10916. The target GPCR is tagged with the small fragment of β-gal called ProLinkTM, a low affinity version of enzyme donor and co-expressed in cells stably expressing β-Arrestin tagged with enzyme acceptor. Activation of the GPCR stimulates binding of β-Arrestin to the ProLink-tagged GPCR, forcing complementation of ProLink and enzyme acceptor, resulting in the formation of an active β-gal enzyme. The resulting active enzyme hydrolyses substrate present in the PathHunter detection reagents to generate light. […] Plates were first incubated for 90 minutes in a 37° C., 5% CO2 incubator and then 5 μL of PathHunter detection reagent was added (DiscoveRx, 93-0001) and the plates were incubated at room temperature for 60 minutes after which the luminescence signal was measured (BMG […]). […]

EC50: > 10 µM
Structure (SMILES): CC[C@H](C)[C@H](N)C(=O)N[C@H](C(=O)N[C@@H](CC(C)C)C(=O)N[C@@H](CO)C(=O)N[C@@H](CC(C)C)C(=O)N[C@@H](CC(=O)O)C(=O)N[C@H](C(=O)N1CCC[C@H]1C(=O)N[C@H](C(=O)NCC(=O)N[C@@H](CC(C)C)C(=O)N[C@@H](CC(C)C)C(=O)N[C@@H](CCC(N)=O)C(=O)N[C@H](C(=O)N[C@@H](CC(C)C)C(=O)N[C@@H](CC(C)C)C(=O)N[C@@H](CCC(=O)O)C(=O)N[C@@H](CCC(N)=O)C(=O)N[C@@H](C)C(=O)N[C@@H](CCCNC(=N)N)C(=O)N[C@@H](C)C(=O)N[C@@H](CCCNC(=N)N)C(=O)N[C@@H](C)C(=O)N[C@@H](C)C(=O)N[C@@H](CCCNC(=N)N)C(=O)N[C@@H](CCC(=O)O)C(=O)N[C@@H](CCC(N)=O)C(=O)N[C@@H](C)C(=O)N[C@H](C(=O)N[C@H](C(=O)N[C@@H](CC(N)=O)C(=O)N[C@@H](C)C(=O)N[C@@H](CCCNC(=N)N)C(=O)N[C@H](C(=O)N[C@@H](CC(C)C)C(=O)N[C@@H](C)C(=O)N[C@@H](CCCNC(=N)N)C(=O)N[C@H](C(N)=O)C(C)C)[C@@H](C)CC)[C@@H](C)O)[C@@H](C)O)[C@@H](C)CC)[C@@H](C)CC)C(C)C)C(C)C [Compound 2]
